Source: paper PMC4949440 (Scientific Reports, 2016)

Columns and labels:
GES-1 cells = experiment: Cell viability (MTT), GES-1 normal cells; type: cell-based; conditions: read-out: IC50 GES-1, 24 h, mean ± SD of three independent experiments
MCF-7 cells = experiment: Cell viability (MTT), MCF-7; type: cell-based; conditions: read-out: IC50 MCF-7, 24 h, mean ± SD of three independent experiments
HL-60 cells = experiment: Cell viability (MTT), HL-60; type: cell-based, human; conditions: read-out: IC50 HL-60, 24 h, mean ± SD of three independent experiments
SGC7901 cells = experiment: Cell viability (MTT), SGC7901; type: cell-based; conditions: read-out: IC50 SGC7901, 24 h, mean ± SD of three independent experiments

O=[As]c1ccc(N=Cc2c[nH]c3ccccc23)cc1 (stereo not shown)
IC50 (GES-1 cells): 83.3 µM
IC50 (MCF-7 cells): 69 µM
IC50 (HL-60 cells): 13.9 µM
IC50 (SGC7901 cells): 155 µM
